Values of other authors as cited in publication PMC7419559 (Scientific Reports, 2020).

By UniProt entry, the sequences of proteins in these tests, tags left out. Where a name states a change or a piece, a line headed by the entry shows the natural chain unless it says otherwise.
UniProt Q9Y5N1: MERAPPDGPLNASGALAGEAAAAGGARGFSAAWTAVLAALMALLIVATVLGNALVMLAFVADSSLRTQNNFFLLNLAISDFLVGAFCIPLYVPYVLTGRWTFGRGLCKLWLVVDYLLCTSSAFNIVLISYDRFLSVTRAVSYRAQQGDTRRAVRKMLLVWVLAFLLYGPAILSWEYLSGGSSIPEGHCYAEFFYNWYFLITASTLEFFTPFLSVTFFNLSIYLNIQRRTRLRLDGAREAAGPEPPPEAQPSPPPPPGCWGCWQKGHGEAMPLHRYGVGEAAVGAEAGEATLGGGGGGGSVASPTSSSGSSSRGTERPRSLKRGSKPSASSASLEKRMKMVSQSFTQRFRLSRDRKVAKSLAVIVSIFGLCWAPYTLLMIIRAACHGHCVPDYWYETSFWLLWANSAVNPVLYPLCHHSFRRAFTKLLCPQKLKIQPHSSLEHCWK

Molecular target: T1, human isoform of histamine H3 receptor (hH3R) (Homo sapiens, UniProt Q9Y5N1)
T1 construct: expressed in transfected cells; host or cells: HEK-293T
Conditions: [3H]Nα-methylhistamine displacement; mean [95% CI]; read-out: hH3R affinity Ki [CI95%]; cited from earlier work

With `O=C(c1ccc(OCCCc2cnc[nH]2)cc1)C1CC1` [Ciproxifan] as the compound, how does the Ki read?
The Ki was 0.32 µM.
